# Experimental data taken from PubChem BioAssay AID588856 (National Center for Advancing Translational Sciences (NCATS), 2011).
# This is a selection; strong and weak results do not stand in their true shares. Some structures show a salt or complex split into parts, the way the source records it. Activity calls are given as the source filed them. The call rests on the fitted dose curve; in most records, active means well fitted cell-killing curve with a large enough effect; inactive means no such curve, though single readings can be large or run the other way.
# Assay: qHTS for Inhibitors of TGF-b: Cytotox Counterscreen
# Settings: HepG2 CAGA-GFP viability, ATP luminescence, 18 h; at 46.1 µM (top of the series)
# Excerpt: TGF-b is a main component in the TGF-b signaling pathway which plays diverse roles in cellular and development pathways. TGF-b is mediated by transcription factors called "Smads". Although the Smad-dependent pathway is the primary canonical TGF-b signaling mode, TGF-b1 can also activate alternative signaling pathways, including those involving MAPK (ERK, JNK and p38). This interaction may mediate or enhance Smad-dependent responses, or can exert Smad-independent effects. The complexity of this signaling cascade allows the TGF-b superfamily to perform unique, overlapping or redundant functions. We believe that targeting the TGF-beta pathway at the Smad-transcription factor level may eliminate the consequences of disrupting the entire pathway and offer specificity without affecting other signaling pathways. Smad3 is the primary transducer of TGF-b's signals and Smad3 regulates many functions attributed to TGF-b signaling. We hypothesize that Smad3 inhibitors will selectively eliminate Smad3-specific TGF-beta signals without undesired off-target effects. We aim to identify Smad3-small molecule antagonists using a quantitative high throughput screening (qHTS) approach.
# A high-throughput assay was developed to screen the NIH Molecular Libraries Small Molecule Repository (MLSMR). This is a cell based assay, where TGF-b is tagged with GFP. This is a counterscreen that evaluates the cytotoxicity of the compounds that were screened in the primary cell-based screen (AID 588855).
# MH087449NIH Chemical Genomics Center [NCGC]
# NIH Molecular Libraries Probe Centers Network [MLPCN]
# Assay Submitter (PI): Sushil Rane, National Institute of […]
# Suspensions of trypsinized HEPG2 CAGA-GFP cells were dispensed into white, tissue culture-treated, solid 1536-well plates at 5uL/well (1000 cells/well final concentration) in DMEM medium supplemented with 1% FBS. Plates were incubated at 37 degrees C for 2 hours, after which 23 nL of compounds or DMSO were delivered to each well using a pin tool. One uL of recombinant TGF-beta in DMEM (1% FBS) was then dispensed (500 pg/mL final concentration), and plates were incubated at 37 degrees C for 18 hours. Two uL of CellTiter Glo (Promega), a luminescence-based viability reagent, was dispensed, followed by a 10 minute room temperature incubation. The plates were then measured on a PerkinElmer ViewLux plate reader for luminescence (clear filter) using a 5 second exposure. The %Activity was determined from the corrected luminescence values. Wells containing media only (no cells) were used to normalize %Activity of identified toxic compounds; media-only wells corresponded to 100%Activity (complete cell-killing), while DMSO-dosed cell controls were used to normalize 0%Activity (no toxicity).
# Concentration-response curves were fitted to the signals arising from the resulting luminescence. The concentration-effect curves were then classified based on curve quality (r2), response magnitude and degree of measured activity, and compounds were subsequently categorized based on their curve class.
row,Structure (SMILES),"activity change, negative = cytotoxicity"
1,COc1ccc(Cl)cc1C(=O)NCC1(N2CCOCC2)CCCCC1,inactive: -2.1%
2,CCOC(=O)N1CCC(Nc2ccc(OC)cc2)CC1,inactive: -3.28%
3,CC(C)c1ccc(NC2CCN(C(=O)OC(C)(C)C)CC2)cc1,inactive: 0.814%
4,CCCCn1nnnc1C(c1ccccc1OC(F)(F)F)N1CCC(n2c(=O)[nH]c3ccccc32)CC1 (stereo not given),inactive: -1.84%
5,COc1ccc(CN(CCCl)CCCl)cc1Cl,inactive: 7.69%
6,CN(C)c1cccc(C(=O)NCC2(N3CCCCC3)CCCCC2)c1,inactive: -11.5%
7,O=[N+]([O-])c1cc([N+](=O)[O-])c(OC2CCCCC2O)c([N+](=O)[O-])c1 (stereo not given),inactive: 28.2%
8,COc1cc(OC)c(C(=O)NCC2(N(C)C)CCCCC2)cc1OC,inactive: 0.86%
9,CCC(c1nnnn1C(C)(C)C)N1CCC(n2c(=O)[nH]c3ccccc32)CC1 (stereo not given),inactive: -2.93%
10,O=C(NCC1(N2CCOCC2)CCCCC1)c1cc(F)c(F)cc1Cl,inactive: -9.34%
11,CCCCn1nnnc1C(c1ccnc2ccccc12)N1CCC(n2c(=O)[nH]c3ccccc32)CC1 (stereo not given),inactive: -10.1%
12,O=C(OC1CN2CCC1CC2)c1ccc([N+](=O)[O-])cc1 (stereo not given),inactive: -12.8%
13,COc1ccc2c(c1O)-c1c(O)c(OC)cc3c1[C@H](C2)[N+](C)(C)CC3.O=[N+]([O-])c1cc([N+](=O)[O-])c([O-])c([N+](=O)[O-])c1[O-],inactive: 18.1%
14,O=C(NCC1(N2CCCCC2)CCCCC1)c1cncc(Br)c1,inactive: -21.7%
15,CN1CCC(Nc2cccc(F)c2)CC1,inactive: -2.75%
16,COc1ccc(C(c2nnnn2C2CCCC2)N2CCC(n3c(=O)[nH]c4ccccc43)CC2)cc1 (stereo not given),inactive: 4.85%
17,Cc1ccc(C(=O)NCC2(N(C)C)CCCCC2)o1,inactive: 1.96%
18,CCCCOc1ccccc1C(=O)NCC1(N2CCOCC2)CCCCC1,inactive: -17.4%

row,Structure (SMILES),"activity change, negative = cytotoxicity"
1,CCCOc1ccc(C(=O)NCC2(N(C)C)CCCCC2)cc1OC,inactive: -4.46%
2,O=C(NCC1(N2CCOCC2)CCCCC1)c1ccccc1Br,inactive: -18.2%
3,O=C(NCC1(N2CCCCC2)CCCCC1)c1ccc(OC(F)F)cc1,inactive: -2.11%
4,CCN1CCC(Nc2ccc(Cl)cc2)CC1,inactive: 5.12%
5,N#CC1(Nc2ccccc2)CCN(CCc2ccccc2)CC1,inactive: -2.18%
6,O=c1[nH]c2ccccc2n1C1CCN(C(c2ccccc2OC(F)(F)F)c2nnnn2C2CCCC2)CC1 (stereo not given),inactive: 13.3%
7,CSc1ccc(C(=O)NCC2(N3CCOCC3)CCCCC2)cc1,inactive: -15%
8,CCOc1ccc(C(=O)NCC2(N3CCOCC3)CCCCC2)cc1,inactive: -10.2%
9,O=C(NCC1(N2CCCCC2)CCCCC1)c1cccc([N+](=O)[O-])c1,inactive: -6.5%
10,O=C(NCC1(N2CCCCC2)CCCCC1)c1cccc(C(F)(F)F)c1,inactive: -3.02%
11,CCCOc1cccc(C(=O)NCC2(N3CCOCC3)CCCCC2)c1,inactive: 6.58%
12,O=C(NCC1(N2CCOCC2)CCCCC1)c1cc(=O)[nH]c2ccccc12,inactive: 2.46%
13,COc1cc(C(=O)NCC2(N3CCCCC3)CCCCC2)ccc1OC(F)F,inactive: -4.53%
14,CCCCn1nnnc1C(c1cccc2ccccc12)N1CCC(n2c(=O)[nH]c3ccccc32)CC1 (stereo not given),inactive: 1.4%
15,CC(C)c1ccc(C(=O)NCC2(N3CCOCC3)CCCCC2)cc1,inactive: -25.8%
16,COc1ccc(NC2CCN(C(=O)OC(C)(C)C)CC2)cc1,inactive: -27.9%
17,CN1CCN(CCOC(=O)C(O)(c2ccccc2)c2ccccc2)CC1,inactive: 37.5%
